## OPERA 2.9 data: water solubility values

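The numbers are reported measurements, compiled and curated for the OPERA QSAR suite. A listed value is a point estimate from one report or more. Method and conditions are not stated for these values. A value may pool stereoisomers or salt forms, and the file does not say which form was measured. Unmarked limits or estimates from the upstream databases cannot be ruled out.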

Water solubility is log10 of mol/L, nominally at 25 °C; higher is more soluble.

The entry for O=C([O-])c1cc(Oc2ccc(C(F)(F)F)cc2Cl)ccc1[N+](=O)[O-].[Na+] [Acifluorfen-sodium] lists water solubility 0.21 (log10 mol/L).
The entry for N[C@@H](Cc1ccc(N(CCCl)CCCl)cc1)C(=O)O [Melphalan] lists water solubility -2.708 (log10 mol/L).
The entry for CC(C)OC(=O)C(O)(c1ccc(Br)cc1)c1ccc(Br)cc1 [Bromopropylate] lists water solubility -5.78 (log10 mol/L).
The entry for N#C[C@H](O[C@@H]1O[C@H](CO[C@@H]2O[C@H](CO)[C@@H](O)[C@H](O)[C@H]2O)[C@@H](O)[C@H](O)[C@H]1O)c1ccccc1 [Amygdalin] lists water solubility -0.77 (log10 mol/L).
The entry for COC1=CC=C2[C@H]3Cc4ccc(OC)c5c4[C@@]2(CCN3C)[C@H]1O5 [Thebaine] lists water solubility -2.66 (log10 mol/L).
The entry for CCCCCCCCCCCCN(C)C [N,N-Dimethyldodecan-1-amine] lists water solubility -3.761 (log10 mol/L).
The entry for C[C@]12C[C@H]3S[C@H]3C[C@@H]1CC[C@@H]1[C@@H]2CC[C@]2(C)[C@@H](O)CC[C@@H]12 [Epitiostanol] lists water solubility -5.41 (log10 mol/L).
The entry for CCC(S(=O)(=O)CC)S(=O)(=O)CC [1,1-Di(ethanesulfonyl)propane] lists water solubility -1.461 (log10 mol/L).
The entry for C=C(C)[C@]1(O)C2OC(=O)C1[C@]1(O)[C@H]3O[C@H]3[C@]3(CO3)[C@]1(C)C2O (some centres not stated) [Hyenanchin] lists water solubility -1.42 (log10 mol/L).
The entry for CC(C)CBr [1-Bromo-2-methylpropane] lists water solubility -2.43 (log10 mol/L).
The entry for O=C1CN=C(c2ccccc2)c2cc([N+](=O)[O-])ccc2N1 [Nitrazepam] lists water solubility -3.8 (log10 mol/L).
The entry for CCCCCCCCCCCCOC(=O)c1ccccc1C(=O)OCCCCCCCCCCCC [Didodecyl phthalate] lists water solubility -6.555 (log10 mol/L).
The entry for O=C1OC(=O)c2c(Br)c(Br)c(Br)c(Br)c21 [4,5,6,7-Tetrabromo-1,3-Isobenzofurandione] lists water solubility -3.436 (log10 mol/L).
The entry for CCC(=O)c1ccc(N)cc1 [4'-Aminopropiophenone] lists water solubility -2.63 (log10 mol/L).
The entry for O=[N+]([O-])c1cc(Cl)cc(Cl)c1 [Benzene, 1,3-dichloro-5-nitro-] lists water solubility -3.584 (log10 mol/L).
The entry for Nc1cc(Cl)c(Cl)cc1Cl [2,4,5-Trichloroaniline] lists water solubility -3.436 (log10 mol/L).
The entry for c1ccc2c(c1)Oc1ccccc1[As]2O[As]1c2ccccc2Oc2ccccc21 [10,10'-Oxybisphenoxarsine] lists water solubility -5 (log10 mol/L).
The entry for CCCC(=O)NC(Cc1ccc(O)cc1)C(=O)NCCCCNCCCNCCCN.O=C(O)C(F)(F)F.O=C(O)C(F)(F)F.O=C(O)C(F)(F)F (stereo not drawn) lists water solubility -1.891 (log10 mol/L).
The entry for CC(C)(c1ccccc1)c1cc(-n2nc3ccccc3n2)c(O)c(C(C)(C)c2ccccc2)c1 lists water solubility -7.5 (log10 mol/L).
The entry for S=P(N1CCOCC1)(N1CCOCC1)N1CCOCC1 [Morpholine, 4,4',4''-phosphinothioyldynetris- (9CI)] lists water solubility -2 (log10 mol/L).

A selection of 2 entries from above:

{"smiles": "O=[N+]([O-])c1cc(Cl)cc(Cl)c1", "name": "Benzene, 1,3-dichloro-5-nitro-", "water solubility (log10 mol/L)": "-3.584"}
{"smiles": "C[C@]12C[C@H]3S[C@H]3C[C@@H]1CC[C@@H]1[C@@H]2CC[C@]2(C)[C@@H](O)CC[C@@H]12", "name": "Epitiostanol", "water solubility (log10 mol/L)": "-5.41"}

From the experimental data distributed with OPERA 2.9.